Test results published in ChEMBL document CHEMBL3091350, “Synthesis and evaluation of the antimalarial, anticancer, and caspase 3 activities of tetraoxane dimers” (Bioorg Med Chem, 2013).

Tests used:
KB = test: Cytotoxicity against human KB cells assessed as cell viability after 24 hrs by MTT assay
HL-60 = test: Cytotoxicity against human HL60 cells assessed as cell viability after 24 hrs by MTT assay
[1] = Cytotoxicity against human HT29-AK cells assessed as cell viability after 24 hrs by MTT assay

Row | Compound | IC50 (KB) [µM] | IC50 (HL-60) [µM] | IC50 [1] [µM]
1 | CC1(CCC(=O)NCCCCNC(=O)CCC2(C)OOC3(CCCCC3)OO2)OOC2(CCCCC2)OO1 (stereo unspecified) | 40.7 |  | 
2 | CC1(CCC(=O)Nc2ccc(NC(=O)CCC3(C)OOC4(CCCCC4)OO3)cc2)OOC2(CCCCC2)OO1 (stereo unspecified) |  | 12.2 | 3.8
3 | CC1(CCC(=O)NCCCNC(=O)CCC2(C)OOC3(CCCCC3)OO2)OOC2(CCCCC2)OO1 (stereo unspecified) |  | 6.6 | 41.8
4 | CC1(CCC(=O)NCCNC(=O)CCC2(C)OOC3(CCCCC3)OO2)OOC2(CCCCC2)OO1 (stereo unspecified) | 39.3 | 7 | 37.2
5 | CC1(CCC(=O)Nc2cccc(NC(=O)CCC3(C)OOC4(CCCCC4)OO3)c2)OOC2(CCCCC2)OO1 (stereo unspecified) | 7.77 | 7.1 | 13.6
